Target: T1, hOGA (Homo sapiens, UniProt O60502)
T1 construct: made in house
T1 sequence (O60502 1-916): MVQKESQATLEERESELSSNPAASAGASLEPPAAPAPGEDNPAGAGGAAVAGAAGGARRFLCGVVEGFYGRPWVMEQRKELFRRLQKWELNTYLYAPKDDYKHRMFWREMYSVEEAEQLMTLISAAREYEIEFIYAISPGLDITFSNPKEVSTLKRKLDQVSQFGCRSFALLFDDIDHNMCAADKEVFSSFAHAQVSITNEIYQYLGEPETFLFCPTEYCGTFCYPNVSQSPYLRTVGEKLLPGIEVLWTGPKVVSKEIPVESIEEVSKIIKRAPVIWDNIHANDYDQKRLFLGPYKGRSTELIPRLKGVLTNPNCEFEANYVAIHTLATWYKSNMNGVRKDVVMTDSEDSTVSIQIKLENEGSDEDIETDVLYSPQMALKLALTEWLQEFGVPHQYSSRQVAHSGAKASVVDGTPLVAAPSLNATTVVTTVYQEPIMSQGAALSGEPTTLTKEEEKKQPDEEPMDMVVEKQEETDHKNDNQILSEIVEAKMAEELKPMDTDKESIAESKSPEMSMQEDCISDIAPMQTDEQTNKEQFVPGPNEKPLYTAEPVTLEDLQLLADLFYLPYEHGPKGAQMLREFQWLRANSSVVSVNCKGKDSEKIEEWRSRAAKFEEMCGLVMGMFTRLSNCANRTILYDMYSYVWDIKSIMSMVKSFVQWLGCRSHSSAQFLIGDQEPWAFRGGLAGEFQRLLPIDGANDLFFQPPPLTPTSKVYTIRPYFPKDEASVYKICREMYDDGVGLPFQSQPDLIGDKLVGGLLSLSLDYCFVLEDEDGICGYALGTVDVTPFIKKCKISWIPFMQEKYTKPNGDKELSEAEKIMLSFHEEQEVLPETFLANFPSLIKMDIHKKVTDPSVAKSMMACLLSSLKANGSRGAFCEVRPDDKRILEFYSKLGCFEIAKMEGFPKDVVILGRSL
Experiment: hOGA inhibition, fluorogenic 4MU-NAG substrate
Assay type: biochemical
Settings: for Selectivity (HexA/B/hOGA): ratio of HexA/B to hOGA inhibition constants

SMILES	Selectivity (HexA/B/hOGA)	hOGA BEI (Binding Efficiency Index) (BEI = -log(Ki)/M, M in kDa, Ki from IC50 by Cheng-Prusoff)
CC(=O)N1CCN(c2ccc(OCC3COC(Cn4ccnc4)(c4ccc(Cl)cc4Cl)O3)cc2)CC1 (stereo not drawn) [Ketoconazole, ketoconazole]	2.6	
CNc1ncnc2nc[nH]c12 [N^6-methyladenine]	75	34
